Here are results for one molecule from patent US8541437B2, “Substituted 2,3,4,5-tetrahydro-1H-pyrido[4,3-b]indoles, methods for the production and use thereof” (Alla Chem, LLC, priority 2007, dated 2013).

Chains of the proteins cited; added tags and fusions are not shown.
UniProt P35367, whole entry: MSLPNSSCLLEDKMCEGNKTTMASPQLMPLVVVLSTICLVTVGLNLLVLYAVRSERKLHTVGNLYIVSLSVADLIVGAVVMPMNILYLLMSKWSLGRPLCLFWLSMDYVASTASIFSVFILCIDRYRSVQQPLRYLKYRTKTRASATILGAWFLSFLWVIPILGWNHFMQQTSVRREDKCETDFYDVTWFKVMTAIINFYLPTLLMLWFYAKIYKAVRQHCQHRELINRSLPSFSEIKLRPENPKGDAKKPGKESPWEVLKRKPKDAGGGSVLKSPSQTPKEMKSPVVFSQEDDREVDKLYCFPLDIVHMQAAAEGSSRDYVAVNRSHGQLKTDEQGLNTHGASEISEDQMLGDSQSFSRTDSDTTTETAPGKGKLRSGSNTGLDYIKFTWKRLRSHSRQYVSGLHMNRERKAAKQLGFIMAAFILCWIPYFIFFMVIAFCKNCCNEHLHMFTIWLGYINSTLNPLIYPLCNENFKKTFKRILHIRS

The target in the assay is H1 histamine receptor (Homo sapiens, UniProt P35367). Description: Histamine-induced intracellular calcium in SK-N-SH cells (Fura 2 AM), Phase 1: block of calcium entry. A general note: A change in cytosolic calcium serves as a functional read-out for many receptors and channels.

Molecules are shown by their SMILES.

Usually EC50 stands for the concentration giving half of the maximal effect. Regarding `Cc1ccc2c(c1)c1c(n2CCc2ccccc2)CCN(C)C1.Cl` [1.2.1(1)HCl, 2,8-dimethyl-5-(2-phenethyl)-2,3,4,5-tetrahydro-1H-pyrido[4,3-b]indole hydrochloride], the EC50 stood at 40 nM.
